Active and inactive are the calls of the source. No cut-off for these calls is given here.
Molecular target: T1, Solute carrier family 2, facilitated glucose transporter member 1 (Homo sapiens) (UniProt P11166)
T1 sequence (whole entry): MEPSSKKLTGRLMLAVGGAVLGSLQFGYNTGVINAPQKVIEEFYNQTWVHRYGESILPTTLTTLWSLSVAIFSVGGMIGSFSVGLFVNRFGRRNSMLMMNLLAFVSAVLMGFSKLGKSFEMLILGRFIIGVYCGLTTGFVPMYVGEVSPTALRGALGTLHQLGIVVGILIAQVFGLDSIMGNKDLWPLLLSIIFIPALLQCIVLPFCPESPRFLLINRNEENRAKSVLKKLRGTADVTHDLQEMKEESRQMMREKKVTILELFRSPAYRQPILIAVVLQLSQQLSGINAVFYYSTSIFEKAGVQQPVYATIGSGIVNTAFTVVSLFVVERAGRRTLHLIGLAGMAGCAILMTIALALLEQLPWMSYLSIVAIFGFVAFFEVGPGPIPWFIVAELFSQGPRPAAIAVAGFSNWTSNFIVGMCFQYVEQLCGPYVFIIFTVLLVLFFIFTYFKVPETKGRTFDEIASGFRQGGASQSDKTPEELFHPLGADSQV
Assay: Inhibition of GLUT1 in human iPSC-CM cells assessed as reduction in insulin-stimulated [3H]-2-deoxyglucose uptake at 2 uM incubated for 30 mins by [3H]-2-deoxyglucose uptake assay
Format: cell-based

Cc1c(NC(=O)c2cc(C(N)=O)nc3cc(F)ccc23)c(C(F)(F)F)nn1Cc1ccc(C#N)cc1 [BAY-876]
inhibition: inactive
